Data from ChEMBL document CHEMBL1135657, “Novel dual inhibitors of AChE and MAO derived from hydroxy aminoindan and phenethylamine as potential treatment for Alzheimer's disease” (J Med Chem, 2002).

Amino acid sequences for entries named in this document (tags omitted). A change or cut given only in a name is not applied to a line headed by its entry.
UniProt P21396, whole entry: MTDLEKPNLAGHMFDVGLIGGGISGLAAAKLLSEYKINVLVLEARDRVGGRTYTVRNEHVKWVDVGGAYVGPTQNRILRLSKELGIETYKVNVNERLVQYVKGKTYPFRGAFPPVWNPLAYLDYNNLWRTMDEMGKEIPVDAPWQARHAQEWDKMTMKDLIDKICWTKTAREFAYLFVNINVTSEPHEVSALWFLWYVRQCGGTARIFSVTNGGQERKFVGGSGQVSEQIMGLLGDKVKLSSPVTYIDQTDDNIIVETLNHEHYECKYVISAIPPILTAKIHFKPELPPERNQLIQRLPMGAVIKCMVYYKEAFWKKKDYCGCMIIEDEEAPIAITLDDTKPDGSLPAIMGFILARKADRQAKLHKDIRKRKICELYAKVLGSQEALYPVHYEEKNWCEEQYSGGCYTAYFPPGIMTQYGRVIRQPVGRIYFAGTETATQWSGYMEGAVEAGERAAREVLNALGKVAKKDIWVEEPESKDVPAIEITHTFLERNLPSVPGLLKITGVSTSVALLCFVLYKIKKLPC
UniProt P22303: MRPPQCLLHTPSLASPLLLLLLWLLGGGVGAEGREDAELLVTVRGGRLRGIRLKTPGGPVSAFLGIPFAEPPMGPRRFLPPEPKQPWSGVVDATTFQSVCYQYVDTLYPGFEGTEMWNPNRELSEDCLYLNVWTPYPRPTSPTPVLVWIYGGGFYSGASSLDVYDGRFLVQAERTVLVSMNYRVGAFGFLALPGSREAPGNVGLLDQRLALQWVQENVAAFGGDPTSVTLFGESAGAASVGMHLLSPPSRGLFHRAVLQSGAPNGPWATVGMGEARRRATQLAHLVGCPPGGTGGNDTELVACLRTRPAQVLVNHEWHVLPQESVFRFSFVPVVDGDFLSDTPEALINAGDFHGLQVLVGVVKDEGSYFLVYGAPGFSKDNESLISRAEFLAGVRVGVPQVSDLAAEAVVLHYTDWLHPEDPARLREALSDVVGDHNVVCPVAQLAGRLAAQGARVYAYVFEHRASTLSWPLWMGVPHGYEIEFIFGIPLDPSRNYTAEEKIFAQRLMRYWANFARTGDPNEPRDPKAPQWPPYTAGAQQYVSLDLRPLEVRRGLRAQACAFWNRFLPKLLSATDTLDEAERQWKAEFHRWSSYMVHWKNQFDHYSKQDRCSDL

Key:
[1] = target: Amine oxidase [flavin-containing] A (Rattus norvegicus, UniProt P21396); experiment: In vitro inhibitory concentration against Monoamine oxidase A of rat brain homogenates; format: tissue-based
Acetylcholinesterase = Acetylcholinesterase (Homo sapiens, UniProt P22303)

Row | SMILES | pIC50 [1] | pIC50 (Acetylcholinesterase)
1 | CN(C)C(=O)Oc1ccc2c(c1)C(N(C)C)CC2 (configuration not stated) | 3.00 | –
2 | C#CCN(C)C1CCc2cccc(OC(=O)N(C)C)c21 (configuration not stated) | – | 5.15

pIC50: −log10 of the molar value.
